According to PubChem BioAssay AID540256 (National Center for Advancing Translational Sciences (NCATS), 2011):
In all, about 300,000 compounds went through this assay and about 3,700 (1.2%) were called active. Only results without a clear call are listed here; the source files them as inconclusive. Calls follow the shape of the full dose curve; tested in HEK293 cells.

Experiment: qHTS for Inhibitors of binding or entry into cells for Lassa Virus; also: nearly all actives have a fitted effect of over 50% in size
Conditions: Lassa virus pseudotype entry inhibition, cell reporter
Potency is read from the fitted curve at half-maximal effect.

| SMILES | Potency |
| --- | --- |
| O=C(OC1CN2CCC1CC2)c1cccc([N+](=O)[O-])c1 (stereo not drawn) | inconclusive: 5620 nM |
| O=[N+]([O-])c1cc([N+](=O)[O-])c(-c2ccn[nH]2)s1 | inconclusive: 29.1 nM |
| O=[As](O)(c1ccc(O)cc1)c1ccccc1O | inconclusive: 1160 nM |
| CC(O)C1C=CC=CC(=O)OC2CC3OC4C5OC5(C)CCC4(COC(=O)C4OC4(C)C(O)CO1)C2(C)C31CO1 (stereo not drawn) | inconclusive: 100 nM |
| CN(C)C(=O)c1cc([N+](=O)[O-])cc2c1-c1c(cc([N+](=O)[O-])cc1[N+](=O)[O-])C2=O | inconclusive: 15800 nM |
| CS(=O)(=O)c1cc([N+](=O)[O-])c2no[n+]([O-])c2c1 | inconclusive: 35500 nM |
| c1nnnn1CCn1cnnn1 | inconclusive: 4110 nM |
| CC(C)C(=O)NC(Sc1ccccc1)C(Cl)(Cl)Cl (stereo not drawn) | inconclusive: 2000 nM |
| O=c1c2cc([N+](=O)[O-])ccc2[nH]c2c([N+](=O)[O-])cc([N+](=O)[O-])cc12 | inconclusive: 6310 nM |
| Nc1cc(N)c2nonc2c1[N+](=O)[O-] | inconclusive: 891 nM |
| NC(=O)c1cc([N+](=O)[O-])cc([N+](=O)[O-])c1N | inconclusive: 58 nM |
| CCc1nc2c(n1)c1c(non1O)c1c2no[n+]1[O-] | inconclusive: 11200 nM |
| COc1ccc(C2=NCC(CBr)S2)cc1 (stereo not drawn) | inconclusive: 631 nM |
